Test results: patent publication US8338425B2, “Heterocyclic kinase inhibitors” (Concert Pharmaceuticals, Inc., priority 2007, dated 2012)

Experiment: Human liver microsome (HLM) metabolic stability assay
Format: in vitro ADME
Details: pooled human liver microsomes, HLM 0.5 mg/mL, test compound 0.5 μM, NADPH, 37° C., 0-30 minutes, Experiment 2, read-out: t1/2 (min) Experiment 2
Method: Microsomal Assay: Human liver microsomes (20 mg/mL) were obtained from Xenotech, LLC (Lenexa, Kans.). β-nicotinamide adenine dinucleotide phosphate, reduced form (NADPH), magnesium chloride (MgCl2), and dimethyl sulfoxide (DMSO) were purchased from Sigma-Aldrich. The incubation mixtures were prepared according to Table 2:
Determination of Metabolic Stability: Two aliquots of this reaction mixture were used for a compound of this invention. The aliquots were incubated in a shaking water bath at 37° C. for 3 minutes. The test compound was then added into each aliquot at a final concentration of 0.5 μM. The reaction was initiated by the addition of cofactor (NADPH) into one aliquot (the other aliquot lacking NADPH served as the negative control). Both aliquots were then incubated in a shaking water bath at 37° C. […]
Data analysis: The in vitro half-lives (t1/2s) for test compounds were calculated from the slopes of the linear regression of % parent remaining (ln) vs incubation time relationship. in vitro t1/2=0.693/k […]
The metabolic stability of compounds of Formula I was tested using pooled liver microsomal incubations. […] Samples of the test compounds, exposed to pooled human liver microsomes, were analyzed using HPLC-MS (or MS/MS) detection. […]

half-life at 0.5 μM: 18 min
Structure (SMILES): [2H]C([2H])(O)CN1CCN(c2cc(Nc3ncc(C(=O)Nc4c(Cl)cccc4C([2H])([2H])[2H])s3)nc(C)n2)CC1 [Compound 101, N-(2-Chloro-6-(methyl-d3)phenyl)-2-(6-(4-(2,2-d2-2-hydroxyethyl)piperazin-1-yl)-2-methylpyrimidin-4-ylamino)thiazole-5-carboxamide]
